Experimental findings from publication PMC6937325, “Tuning PFKFB3 Bisphosphatase Activity Through Allosteric Interference” (Scientific Reports, 2019) are described below.

The test concerns the target human inducible phospho-fructokinase bisphosphatase isoform 3, PFKFB3 (human), Q16875. As to the kind of experiment: MST; compound in MST buffer mixed 1:1 with 100 nM RED-NHS labeled recombinant PFKFB3, incubated 20 min at room temperature; Nanotemper.

B1: compound 6 (peptide)
chain: WGY
modifications: not checked
As a reminder, the Kd is the constant that tells how readily two partners part at equilibrium. B1: the Kd is 3000 nM.
